System: U2OS (p53 wild-type) and H1299 (p53 null) cells
Assay: combination viability assay, excess over Bliss independence
Format: cell-based, human
Details: U2OS and H1299, 48 hours

Substance: Nutlin-3
- synergy with camptothecin or etoposide on viability: synergy with camptothecin and etoposide only in the p53-wild-type cell line

Source: patent publication US20120135089A1, “E3 LIGASE INHIBITORS” (priority 2009, published 2012)
